Values of other authors in patent US5304113A, “Method of eradicating infectious biological contaminants” (The MCW Research Foundation, Inc., priority 1990, dated 1994).

Settings: comparison dye; cited from earlier work

SMILES: CC1(C)C(/C=C/C=C/C=C/C=C2\N(CCCCS(=O)(=O)O)c3ccc4ccccc4c3C2(C)C)=[N+](CCCCS(=O)(=O)[O-])c2ccc3ccccc3c21 [indocyanine green]
- LD50 (mouse), for comparison: 70 mg/kg
